This assay addresses hCAII (Homo sapiens, UniProt P00918). The assay can be described thus: standard esterase activity assay against hCAII. It counts as biochemical.

Turning to `O=C(O)c1ccc(O)cc1` [Compound 3, 4-Hydroxybenzoic acid], half-maximal inhibition (IC50) required 8 ± 2 mM.

The values above are taken from paper PMC3674230 (Chemical communications (Cambridge, England), 2012).
